Test results as given in article PMC6335623, “A computationally designed binding mode flip leads to a novel class of potent tri-vector cyclophilin inhibitors” (Chemical Science, 2018).

Amino acid sequences for entries named in this document (tags omitted). Residues count along the entry.
UniProt P23284, 34-216: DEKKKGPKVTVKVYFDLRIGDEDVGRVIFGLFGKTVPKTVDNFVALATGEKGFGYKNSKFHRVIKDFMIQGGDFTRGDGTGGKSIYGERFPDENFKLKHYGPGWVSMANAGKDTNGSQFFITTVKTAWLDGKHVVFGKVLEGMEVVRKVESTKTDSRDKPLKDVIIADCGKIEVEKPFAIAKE
UniProt P30405, 30-207: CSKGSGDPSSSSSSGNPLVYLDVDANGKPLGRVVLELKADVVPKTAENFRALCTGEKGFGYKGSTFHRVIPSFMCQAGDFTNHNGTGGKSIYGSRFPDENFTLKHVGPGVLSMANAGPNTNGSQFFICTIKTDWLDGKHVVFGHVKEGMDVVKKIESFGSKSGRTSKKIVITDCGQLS
UniProt P62937, whole entry: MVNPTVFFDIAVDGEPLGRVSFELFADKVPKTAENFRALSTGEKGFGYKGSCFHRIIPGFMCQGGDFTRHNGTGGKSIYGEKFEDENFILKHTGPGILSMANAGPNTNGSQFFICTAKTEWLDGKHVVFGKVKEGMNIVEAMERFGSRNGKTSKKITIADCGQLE

Assays:
Assay type in all cases: binding
[1] = biological target: T1, His-CypB (Homo sapiens, UniProt P23284); assay: biochemical
T1 construct: made in house; host or cells: E. coli C41 BL21(DE3) ('C41 BL21(DH3)' [sic]); plasmid from the Edinburgh Protein Production Facility
Procedure: (§1) injection protocol (Fig. S9B). […]
(§2) using the same instrument parameters was performed (Fig. S9A).
(§3) Surface Plasmon Resonance (SPR)
(§4) SPR1 – SPR equipment and reagents
(§5) SPR measurements were performed on a BIAcore T200 instrument (GE Healthcare). Ni2+- nitrilotriacetic acid (NTA) sensor chips, 1-ethyl-3-(3- diaminopropyl) carbodiimide hydrochloride (EDC) and Nhydroxysuccinimide (NHS) were purchased from GE Healthcare.
(§6) SPR2 – Immobilization and covalent stabilizations of His-Cyps
(§7) Pure His-cyclophilins were immobilized and covalently stabilized on the NTA sensor chip according to the protocol described [Wear et al., 2017, FEBS OpenBio], using 200 nM concentrations of each protein, in Running Buffer (PBS, pH 7.4; 0.05% surfactant P20, 2% v/v ethanol; 50 µM EDTA), at 30 µl min-1 with 60 second contact times on the activated NTA surfaces.
(§8) (1 picture or pasted object on this page, not shown here) […]
(§9) Buffer (PBS, pH 7.4, 50 µM mM EDTA; 0.05 % v/v surfactant P20; 2 % v/ v ethanol), were injected over the sensor surface, at 100 µl.min -1 with a 90 s contact time and a 90 s dissociation time. […] The apparent on-rate (k+) and off-rate (k-) constants and the equilibrium dissociation constant (K d) were calculated from reference corrected sensorgrams by global fitting of a 1:1 binding model, including a mass transport term, using analysis software ( v.2.02, GE Healthcare) provided with the BIAcore T200 […]

[2] = biological target: T2, His-CypD (Homo sapiens, UniProt P30405); assay: Surface plasmon resonance (SPR) kinetic titration, BIAcore T200
T2 construct: made in house; host or cells: E. coli C41 BL21(DE3) ('C41 BL21(DH3)' [sic]); plasmid from the Edinburgh Protein Production Facility
Procedure: as §1, §2, §3, §4, §5, §6, §7, §8, §9

[3] = biological target: T3, His-CypA (Homo sapiens, UniProt P62937); assay: as above
T3 construct: made in house; host or cells: E. coli C41 BL21(DE3) ('C41 BL21(DH3)' [sic]); plasmid from the Edinburgh Protein Production Facility
Procedure: as §1, §2, §3, §4, §5, §6, §7, §8, §9

## Cl.Cn1cc(CN(Cc2ccc(N)cc2)C(=O)NCC(=O)N2CCCC2c2ccccc2Br)nn1 (stereo not drawn) [Compound 14]
[1]
  Kd: 300 ± 200 nM
[2]
  Kd: 2900 ± 1200 nM
[3]
  Kd: 1700 ± 1000 nM
